T1: JunB (expression construct in pCMV-SPORT6 vector, ATCC) (UniProt P17275 1-347)
T1 sequence (looked up): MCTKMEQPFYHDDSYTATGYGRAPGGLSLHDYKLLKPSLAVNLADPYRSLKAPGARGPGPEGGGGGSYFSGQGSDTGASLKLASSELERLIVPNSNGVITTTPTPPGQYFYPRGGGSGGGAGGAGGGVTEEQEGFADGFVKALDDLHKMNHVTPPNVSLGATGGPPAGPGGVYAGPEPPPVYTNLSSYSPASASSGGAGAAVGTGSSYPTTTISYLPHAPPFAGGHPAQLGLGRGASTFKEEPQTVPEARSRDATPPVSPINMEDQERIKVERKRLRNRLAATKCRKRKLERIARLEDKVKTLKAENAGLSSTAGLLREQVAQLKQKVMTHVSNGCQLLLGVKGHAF

The chains behind the UniProt entries cited, without tags or fusion partners. Residues count along the entry.
UniProt B2RWS6, 2-2412 limits assumed: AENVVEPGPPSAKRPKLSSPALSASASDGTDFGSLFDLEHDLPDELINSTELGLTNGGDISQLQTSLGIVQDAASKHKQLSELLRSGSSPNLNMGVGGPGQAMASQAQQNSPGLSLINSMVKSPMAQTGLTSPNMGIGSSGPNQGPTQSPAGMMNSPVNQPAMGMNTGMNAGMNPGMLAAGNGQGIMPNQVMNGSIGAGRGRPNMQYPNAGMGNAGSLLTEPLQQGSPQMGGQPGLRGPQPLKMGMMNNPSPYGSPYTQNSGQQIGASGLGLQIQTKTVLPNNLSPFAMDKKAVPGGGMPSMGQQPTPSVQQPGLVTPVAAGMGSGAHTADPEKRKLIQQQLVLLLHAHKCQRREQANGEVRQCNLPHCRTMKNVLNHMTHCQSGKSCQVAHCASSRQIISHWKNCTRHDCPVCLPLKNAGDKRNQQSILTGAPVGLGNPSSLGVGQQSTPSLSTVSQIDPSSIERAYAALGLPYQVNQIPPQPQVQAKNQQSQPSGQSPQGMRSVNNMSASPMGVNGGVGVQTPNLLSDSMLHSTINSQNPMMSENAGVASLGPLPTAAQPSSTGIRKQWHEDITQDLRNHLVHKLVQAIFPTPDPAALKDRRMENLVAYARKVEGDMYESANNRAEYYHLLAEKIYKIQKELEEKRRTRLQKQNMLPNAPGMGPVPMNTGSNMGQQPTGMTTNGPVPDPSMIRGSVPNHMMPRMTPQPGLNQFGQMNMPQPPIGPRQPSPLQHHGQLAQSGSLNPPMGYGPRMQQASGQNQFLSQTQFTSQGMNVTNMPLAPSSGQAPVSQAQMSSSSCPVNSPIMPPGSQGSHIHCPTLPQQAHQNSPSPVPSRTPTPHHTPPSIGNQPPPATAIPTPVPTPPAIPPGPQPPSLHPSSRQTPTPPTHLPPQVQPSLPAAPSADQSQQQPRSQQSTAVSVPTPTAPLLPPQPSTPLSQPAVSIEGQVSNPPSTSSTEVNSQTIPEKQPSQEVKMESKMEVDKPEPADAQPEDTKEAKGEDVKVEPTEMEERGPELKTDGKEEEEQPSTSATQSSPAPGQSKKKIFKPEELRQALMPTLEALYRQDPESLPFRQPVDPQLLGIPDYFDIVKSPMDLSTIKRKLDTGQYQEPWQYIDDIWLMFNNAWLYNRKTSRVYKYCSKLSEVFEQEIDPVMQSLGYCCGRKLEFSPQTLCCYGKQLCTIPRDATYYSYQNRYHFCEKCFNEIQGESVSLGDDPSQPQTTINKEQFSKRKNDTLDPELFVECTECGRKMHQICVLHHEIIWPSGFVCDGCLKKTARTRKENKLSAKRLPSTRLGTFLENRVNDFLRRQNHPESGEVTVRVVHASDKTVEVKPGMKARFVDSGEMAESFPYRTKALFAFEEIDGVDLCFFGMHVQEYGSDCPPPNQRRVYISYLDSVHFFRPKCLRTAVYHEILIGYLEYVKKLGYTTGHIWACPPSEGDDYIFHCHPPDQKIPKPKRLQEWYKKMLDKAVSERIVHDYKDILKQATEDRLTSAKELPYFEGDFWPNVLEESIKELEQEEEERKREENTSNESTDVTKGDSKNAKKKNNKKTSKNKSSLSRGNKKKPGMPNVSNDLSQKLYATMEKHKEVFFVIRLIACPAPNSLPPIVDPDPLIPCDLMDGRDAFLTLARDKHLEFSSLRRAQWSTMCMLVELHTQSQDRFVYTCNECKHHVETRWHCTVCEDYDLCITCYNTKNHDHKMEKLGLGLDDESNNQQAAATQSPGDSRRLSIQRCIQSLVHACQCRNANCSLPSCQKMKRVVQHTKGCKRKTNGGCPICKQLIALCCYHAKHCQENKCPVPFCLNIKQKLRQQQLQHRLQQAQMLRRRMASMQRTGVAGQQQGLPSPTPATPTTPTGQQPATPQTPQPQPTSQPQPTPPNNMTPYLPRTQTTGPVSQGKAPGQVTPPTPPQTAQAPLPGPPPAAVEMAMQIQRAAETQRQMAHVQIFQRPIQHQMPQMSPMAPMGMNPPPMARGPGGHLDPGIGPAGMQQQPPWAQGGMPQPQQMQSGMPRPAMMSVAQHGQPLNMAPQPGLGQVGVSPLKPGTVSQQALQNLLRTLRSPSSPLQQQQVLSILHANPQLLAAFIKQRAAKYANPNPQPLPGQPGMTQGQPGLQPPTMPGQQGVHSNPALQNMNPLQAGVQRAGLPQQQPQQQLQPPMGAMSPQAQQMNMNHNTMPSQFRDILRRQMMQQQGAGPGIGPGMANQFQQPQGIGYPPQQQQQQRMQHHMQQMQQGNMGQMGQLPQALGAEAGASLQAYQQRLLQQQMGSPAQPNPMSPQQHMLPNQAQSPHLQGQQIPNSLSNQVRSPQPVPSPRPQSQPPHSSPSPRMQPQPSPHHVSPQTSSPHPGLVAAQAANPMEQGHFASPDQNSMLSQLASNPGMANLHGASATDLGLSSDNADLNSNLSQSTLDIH
UniProt P01100, whole entry: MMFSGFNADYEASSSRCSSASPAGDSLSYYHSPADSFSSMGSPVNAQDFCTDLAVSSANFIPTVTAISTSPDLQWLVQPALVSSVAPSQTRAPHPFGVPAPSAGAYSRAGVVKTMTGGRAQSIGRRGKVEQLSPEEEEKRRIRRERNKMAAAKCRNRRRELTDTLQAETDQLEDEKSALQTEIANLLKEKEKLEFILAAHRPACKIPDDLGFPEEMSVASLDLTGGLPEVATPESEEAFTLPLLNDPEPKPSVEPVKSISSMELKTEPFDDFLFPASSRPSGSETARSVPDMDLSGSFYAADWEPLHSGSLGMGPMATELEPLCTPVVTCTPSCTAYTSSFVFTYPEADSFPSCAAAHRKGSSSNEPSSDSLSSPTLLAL
UniProt P05412, whole entry: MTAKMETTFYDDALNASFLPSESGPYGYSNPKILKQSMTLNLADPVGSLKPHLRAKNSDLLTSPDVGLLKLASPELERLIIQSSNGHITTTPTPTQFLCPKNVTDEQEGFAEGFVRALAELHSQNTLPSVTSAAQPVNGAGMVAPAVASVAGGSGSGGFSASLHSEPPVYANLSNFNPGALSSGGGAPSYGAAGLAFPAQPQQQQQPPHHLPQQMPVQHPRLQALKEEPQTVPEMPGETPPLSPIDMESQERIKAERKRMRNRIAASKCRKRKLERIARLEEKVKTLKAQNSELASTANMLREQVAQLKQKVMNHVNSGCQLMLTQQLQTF


Experiments:
Experiment in all cases: cell-based or functional assay
[1] = target: p300 of the NIH 3T3 reporter cells (endogenous) (UniProt B2RWS6)
[2] = target: c-Fos-V5 (construct bought from Invitrogen) (UniProt P01100)
[3] = target: T1, JunB (expression construct in …)
[4] = target: c-Jun (expression construct in pCMV-SPORT6 vector, ATCC) (UniProt P05412)

Row | NF-κB activity (pNF-κB-Luc reporter, NIH 3T3 cells) in the presence of wortmannin, fold activation [1] | AP-1 reporter (pAP-1-Luc) activated by overexpression of c-Fos alone, 293 cells; inhibition against WT Tcl1 [2] | AP-1 reporter (pAP-1-Luc) activated by overexpression of JunB alone, 293 cells; inhibition against WT Tcl1 [3] | AP-1 reporter (pAP-1-Luc) activated by overexpression of c-Jun alone, 293 cells; inhibition against WT Tcl1 [4] | Binder
1 | > 4 fold | – | – | – | Tcl1 WT (pCMV5-TCL1 WT construct, full-length human TCL1 ORF) (other, UniProt P56279 1-114, looked up) MAECPTLGEAVTDHPDRLWAWEKFVYLDEKQHAWLPLTIEIKDRLQLRVLLRREDVVLGRPMTPTQIGPSLLPIMWQLYPDGRYRSSDSSFWRLVYHIKIDGVEDMLLELLPDD
2 | – | ~2 fold more effectively than WT Tcl1 | ~2 fold more effectively than WT Tcl1 | ~2 fold more effectively than WT Tcl1 | Tcl1 T38I (pCMV5-TCL1 T38I construct) (other, human, UniProt P56279 1-114, looked up) MAECPTLGEAVTDHPDRLWAWEKFVYLDEKQHAWLPLIIEIKDRLQLRVLLRREDVVLGRPMTPTQIGPSLLPIMWQLYPDGRYRSSDSSFWRLVYHIKIDGVEDMLLELLPDD

Source: US20110311555A1 (OHIO STATE UNIVERSITY, published 2011)
